# Laboratory results from patent EP2608671B1, “COMPOUNDS FOR TREATMENT OF CANCER” (Gtx, Inc., priority 2010, dated 2012).
# How the values were obtained:
# PC-3/TxR = type: cell-based, human; details: IC50 in PC-3/TxR compared with PC-3
# [1] = tested on: PC-3 prostate tumor xenograft; assay: In vivo antitumor efficacy, PC-3 xenograft; design: species or system mouse; details: for TGI (%): PC-3 xenograft, day 1 and 9, end point day 19
# A375 cells = assay: Cell cycle analysis (G2/M arrest), flow cytometry; type: cell-based, human
structure (smiles),measurement,setting,value
"COc1cc(C(=O)c2csc(Nc3ccc4[nH]ccc4c3)n2)cc(OC)c1OC [compound 55, (2-(1H-INDOL-5-YLAMINO)THIAZOL-4-YL)(3,4,5-TRIMETHOXYPHENYL)METHANONE]",resistance factor (data in parentheses),PC-3/TxR,0.4
"CC(=O)O[C@@]12CO[C@@H]1C[C@H](O)[C@@]1(C)C(=O)[C@H](O)C3=C(C)[C@@H](OC(=O)[C@H](O)[C@@H](NC(=O)OC(C)(C)C)c4ccccc4)C[C@@](O)([C@@H](OC(=O)c4ccccc4)[C@H]21)C3(C)C [Docetaxel, reference compound]",tumor growth inhibition (TGI),"[1]; PC-3 tumors, 20 mg/kg i.v.",> 100%
same,TGI (%),[1]; IV 10mpk,84%
same,TGI (%),[1]; IV 20mpk,> 100%
"COc1cc2c(c(OC)c1OC)-c1ccc(OC)c(=O)cc1[C@@H](NC(C)=O)CC2 [Colchicine, reference compound]",concentration from which most cells are arrested in the G2/M phase,A375 cells,50 nM
